# Source: PMC9083324, “Identifying Acute Cardiac Hazard in Early Drug Discovery Using a Calcium Transient High-Throughput Assay in Human-Induced Pluripotent Stem Cell-Derived Cardiomyocytes” (Frontiers in Physiology, 2022)
# Tests used:
# hERG [1] = conditions: ref Titier et al., 2005; cited from earlier work
# hERG [2] = conditions: 6 µM vs fCmax
smiles,measurement,setting,value
Cc1cc2c(s1)Nc1ccccc1N=C2N1CCN(C)CC1 [Olanzapine],concentration found to significantly inhibit hERG,hERG [1],6 µM
same,hERG-inhibiting concentration as multiple of fCmax,hERG [2],90 fold
